Measurements: BindingDB's records for PubMed 6655559 (University of California, 1983)

The chains behind the UniProt entries cited, without tags or fusion partners.
UniProt G1T1Q0, whole entry: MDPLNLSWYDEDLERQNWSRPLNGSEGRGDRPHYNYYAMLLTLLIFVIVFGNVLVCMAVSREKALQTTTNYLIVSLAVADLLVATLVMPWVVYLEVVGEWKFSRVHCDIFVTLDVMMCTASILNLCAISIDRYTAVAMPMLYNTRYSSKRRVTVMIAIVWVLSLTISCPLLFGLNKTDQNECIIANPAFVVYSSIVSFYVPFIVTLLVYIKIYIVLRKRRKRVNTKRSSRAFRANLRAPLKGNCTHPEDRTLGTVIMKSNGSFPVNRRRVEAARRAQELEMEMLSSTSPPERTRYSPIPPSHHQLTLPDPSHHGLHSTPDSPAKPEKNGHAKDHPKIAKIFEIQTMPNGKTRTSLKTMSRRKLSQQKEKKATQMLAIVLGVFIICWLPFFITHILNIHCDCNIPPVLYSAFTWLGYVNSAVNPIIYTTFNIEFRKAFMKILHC

Molecular target: D(2) dopamine receptor (Oryctolagus cuniculus, UniProt G1T1Q0)

Structure (SMILES): CCN1CCCC1CNC(=O)c1cc(S(N)(=O)=O)ccc1OC (stereo unspecified) [N-[(1-ethylpyrrolidin-2-yl)methyl]-2-methoxy-5-sulfamoylbenzamide]
- Ki: 1200 nM
